# Measurements published in patent US7985736B2, “High throughput screen utilizing newly discovered intramolecular neuronal calcium channel interactions to discover new analgesics” (The John Hopkins University, priority 2004, dated 2011).
# Chains of the proteins cited; added tags and fusions are not shown.
# UniProt P08172, whole entry S286A/T287A/S288A/S290A/T307A/S309A/T310A/S311A: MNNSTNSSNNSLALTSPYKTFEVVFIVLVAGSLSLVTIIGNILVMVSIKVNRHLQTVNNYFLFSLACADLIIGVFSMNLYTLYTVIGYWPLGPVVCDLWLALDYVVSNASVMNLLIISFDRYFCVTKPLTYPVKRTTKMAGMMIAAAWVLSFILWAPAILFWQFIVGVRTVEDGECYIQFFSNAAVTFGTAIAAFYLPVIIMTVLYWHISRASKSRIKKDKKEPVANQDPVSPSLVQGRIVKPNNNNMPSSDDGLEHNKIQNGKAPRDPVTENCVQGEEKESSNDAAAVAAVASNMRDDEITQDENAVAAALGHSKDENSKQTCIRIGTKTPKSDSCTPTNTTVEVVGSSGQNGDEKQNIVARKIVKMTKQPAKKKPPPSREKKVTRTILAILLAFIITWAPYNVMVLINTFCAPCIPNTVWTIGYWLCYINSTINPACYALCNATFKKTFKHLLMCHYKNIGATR
# Target: T1, m2R (engineered human m2 muscarinic acetylcholine receptor) (Homo sapiens, UniProt P08172, S286A/S288A/S290A/S309A/S311A/T287A/T307A/T310A)
# T1 construct: expressed in transfected cells; host or cells: HEK293
# Experiment: Receptor-mediated G protein modulation of N-type channels by carbachol via engineered m2R in HEK293 cells
# Type: cell-based
structure (smiles),measurement,setting,value
C[N+](C)(C)CCOC(N)=O [carbachol],G protein modulation of channels by bath-applied carbachol,channels coexpressed with m2R,rapidly induced marked G protein modulation of channels
same,G/Q depression by carbachol alone,"without NTB peptide, carbachol application for 60 min",produced no G/Q depression
